Assay [1] addresses PI3Kγ (Homo sapiens, UniProt P48736). The assay can be described thus: PI3Kγ cellular assay in THP-1 cells (AKT pS473 AlphaLISA). It counts as cell-based. As to conditions: read-out: cellular potency (PI3Kγ IC50), Table 2, rhMCP-1 stimulated AKT pS473. In general terms: Bead proximity is the source of the signal in Alpha formats.
For assay [2], the target named is PI3Kγ (p120γ) (Homo sapiens, UniProt P48736). The assay can be described thus: Inhibition of PI3K kinase activity (ADP Glo), PI3Kγ. As to conditions: read-out: biochemical potency (PI3Kγ IC50), Table 2. (In ADP-Glo the light output rises with the ADP produced.)

Protein sequences, listed by entry. Tags and fused reporters are not part of them.
UniProt P48736, whole entry: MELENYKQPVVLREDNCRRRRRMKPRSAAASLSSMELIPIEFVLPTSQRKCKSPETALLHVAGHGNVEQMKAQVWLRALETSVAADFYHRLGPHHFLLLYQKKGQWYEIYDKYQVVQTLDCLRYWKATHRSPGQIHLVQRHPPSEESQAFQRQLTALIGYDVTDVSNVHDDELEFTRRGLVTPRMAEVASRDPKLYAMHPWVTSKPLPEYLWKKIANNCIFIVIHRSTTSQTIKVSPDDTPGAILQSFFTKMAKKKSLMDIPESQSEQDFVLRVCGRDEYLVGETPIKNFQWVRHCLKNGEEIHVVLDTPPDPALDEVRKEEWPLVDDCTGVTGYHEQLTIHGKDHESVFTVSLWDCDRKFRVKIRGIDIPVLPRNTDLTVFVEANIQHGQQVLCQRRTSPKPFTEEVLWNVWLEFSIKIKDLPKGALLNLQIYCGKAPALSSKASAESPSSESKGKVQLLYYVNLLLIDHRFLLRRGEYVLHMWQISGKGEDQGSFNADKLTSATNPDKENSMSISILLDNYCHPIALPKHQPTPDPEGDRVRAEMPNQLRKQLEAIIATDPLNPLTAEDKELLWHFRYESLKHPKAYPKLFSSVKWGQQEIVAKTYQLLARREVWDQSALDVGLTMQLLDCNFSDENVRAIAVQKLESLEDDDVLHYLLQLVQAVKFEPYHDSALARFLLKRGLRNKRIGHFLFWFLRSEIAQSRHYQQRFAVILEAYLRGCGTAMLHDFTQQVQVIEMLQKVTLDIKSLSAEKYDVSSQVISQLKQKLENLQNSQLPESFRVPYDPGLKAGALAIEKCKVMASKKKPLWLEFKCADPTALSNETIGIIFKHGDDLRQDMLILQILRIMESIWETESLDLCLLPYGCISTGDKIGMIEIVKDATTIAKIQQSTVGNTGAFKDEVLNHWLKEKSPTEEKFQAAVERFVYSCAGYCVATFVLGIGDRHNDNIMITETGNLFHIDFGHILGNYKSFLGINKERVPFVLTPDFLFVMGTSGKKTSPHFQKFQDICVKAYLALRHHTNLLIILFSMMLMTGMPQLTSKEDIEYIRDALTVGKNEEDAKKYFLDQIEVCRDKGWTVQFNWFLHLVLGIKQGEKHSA

By IC50 is commonly meant the concentration at which inhibition is half-maximal. Regarding `Cc1cc(-c2ccn3nc(N)c(C(=O)N4CCN(C)CC4)c3n2)cc2c1C(=O)N([C@@H](C)C1CC1)C2`, the half-inhibitory concentration (IC50) is 100 to 1000 nM in assay [1] and less than 100 nM in assay [2].

The values above are taken from US20230024302A1.
